Consider 4 molecules from patent US7781432B2 (Gruenenthal GmbH, priority 2004, dated 2010).

The experiment deals with T1, Nucleoside Transporter (Homo sapiens, UniProt Q99808).
T1 sequence (Q99808 1-456): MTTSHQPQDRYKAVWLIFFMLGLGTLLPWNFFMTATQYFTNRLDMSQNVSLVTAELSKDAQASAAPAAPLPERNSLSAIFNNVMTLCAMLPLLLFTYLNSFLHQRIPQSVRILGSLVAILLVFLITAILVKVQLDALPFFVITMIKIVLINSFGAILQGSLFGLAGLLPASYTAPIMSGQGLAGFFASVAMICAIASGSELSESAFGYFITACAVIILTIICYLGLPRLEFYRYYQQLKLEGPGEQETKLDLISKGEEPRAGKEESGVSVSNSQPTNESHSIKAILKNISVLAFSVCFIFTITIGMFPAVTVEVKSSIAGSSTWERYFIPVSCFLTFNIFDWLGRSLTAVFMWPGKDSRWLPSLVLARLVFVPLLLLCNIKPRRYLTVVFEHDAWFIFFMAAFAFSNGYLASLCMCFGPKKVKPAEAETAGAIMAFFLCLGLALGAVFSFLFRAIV
Put plainly: radioligand binding assay with [3H]NBTI on human erythrocyte membranes. Particulars: for Ki: read-out: Binding Nucleoside Transporter (Ki), [[…] 1.5 nM, 30' at 25° C., 50 mM Tris.HCl pH 7.4.

The term Ki denotes a dissociation constant, usually derived from enzyme kinetics or from competition with a known ligand. In the case of “9-benzyl-8-morpholino-6-(4-nitrobenzyl)-mercaptopurine [Example 17]”, the Ki came to 51 nM.

Take `CNc1nc2c(SCc3ccccc3)ncnc2n1[C@@H]1O[C@H](CO)[C@@H](O)[C@H]1O` [Example 1]: the Ki was 28 nM.

Consider `CCCCCCNc1nc2c(SCc3ccccc3)ncnc2n1[C@@H]1O[C@H](CO)[C@@H](O)[C@H]1O` [Example 6], for which the inhibition constant (Ki) stood at 3.7 nM.

For `c1ccc(Cn2c(N3CCCC3)nc3c(SCc4ccc5nonc5c4)ncnc32)cc1` [Example 18, 6 (benzo[c][1,2,5]oxadiazole-5-ylmethylsulfanyl)-9-benzyl-8-pyrrolidin-1-yl-9H-purine], under “[3H]NBTI 1.5 nM, test concentration not printed (footnote c missing)”, the “Binding Nucleoside Transporter (value printed as % in the Ki column)” value was 43%.
